Publication PMC12281475, “Mediator Kinase Inhibitor Selectivity and Activity in Colorectal Cancer” (ACS Chemical Biology, 2025)

By UniProt entry, the sequences of proteins in these tests, tags left out. Where a name states a change or a piece, a line headed by the entry shows the natural chain unless it says otherwise.
UniProt Q9BWU1: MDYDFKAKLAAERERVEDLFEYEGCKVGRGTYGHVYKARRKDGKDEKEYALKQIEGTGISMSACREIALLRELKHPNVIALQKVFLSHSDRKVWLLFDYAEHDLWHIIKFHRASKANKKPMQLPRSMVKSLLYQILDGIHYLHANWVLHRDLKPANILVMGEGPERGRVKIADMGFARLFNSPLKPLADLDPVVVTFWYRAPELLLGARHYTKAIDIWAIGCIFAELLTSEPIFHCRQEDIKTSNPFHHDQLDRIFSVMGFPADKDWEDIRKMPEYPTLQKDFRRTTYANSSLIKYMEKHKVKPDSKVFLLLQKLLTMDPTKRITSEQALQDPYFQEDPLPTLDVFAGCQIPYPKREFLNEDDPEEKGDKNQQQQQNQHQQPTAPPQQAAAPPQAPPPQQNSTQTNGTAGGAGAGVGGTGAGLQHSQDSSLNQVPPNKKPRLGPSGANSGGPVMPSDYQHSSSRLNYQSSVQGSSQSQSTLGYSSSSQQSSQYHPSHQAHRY

Molecular target: T1, CDK19_CycC (Homo sapiens, UniProt Q9BWU1)
T1 construct: purchased Reaction Biology
Assay: Radiometric protein kinase assay (33PanQinase), CDK19_CycC
Assay type: biochemical
Conditions: highest assay concentration 1.00E-05 M

CN1CCN(C(=O)c2ccc3cc(CCNc4ncnc5ccc(C#N)cc45)ccc3c2)CC1 [Senexin B, reference compound]
IC50: 0.484 µM
